# Assay results taken from US20240245795A1, “PREPARATION METHOD AND APPLICATION OF ANTIBODY DRUG CONJUGATE” (priority 2021, published 2024).
# Test system: COLO205 human colon cancer cells
# Test: In vivo anti-tumor experiment (1), COLO205 xenograft, low HER2
# Parameters: species or system female nude mice
# Conditions: 10 mg/kg i.v. on day 0, COLO205 low HER2
# Method: The efficacy of the combination of the present invention can be measured in vivo, i.e., an allograft or xenograft of cancer cells was implanted in rodents, and the tumors were treated with the combination. Test mice were treated with drugs or controls and monitored for several weeks or longer to measure the time to tumor doubling, log cell killing, and tumor inhibition.
# COLO205 human colon cancer cells (ATCC) with low expression of HER2 were suspended in physiological saline. 4×10^7 cells were subcutaneously transplanted into the right flank of female nude mice, which were randomized into groups on day 6. […] As a control group, a PBS buffer-administered group was set.
substance,measurement,value
Kadcyla,tumor growth inhibitory activity,did not show tumor growth inhibitory activity
